Assay results published in ChEMBL document CHEMBL3244159, “Ultraviolet photoelectron spectroscopy of cyclic amidines. 1. Electronic structure of some alpha-adrenergic benzylimidazolines” (J Med Chem, 1979).

Molecular target: Adrenergic receptor alpha
Test: Displacement of [3H]clonidine from alpha-adrenergic receptor in rat brain
Assay type: tissue-based

c1ccc2c(CC3=NCCN3)cccc2c1 [NAPHAZOLINE]
Ki: 5.7 nM
